Laboratory results from patent US12516027B2, “Lappaconitine derivative and use thereof” (priority 2020, dated 2026).

Tested on: Sprague Dawley (SD) rat
Experiment: Animal model of bone fracture, ilium bone defect
Format: in vivo
Conditions: implanted in collagen sponge at bone defect site; QG3030 low, medium and high; BMP2 1 ug/10 uL
Description: The ilium of a Sprague Dawley (SD) rat was subjected to drilling with a diameter of 2 mm to induce a bone defect, and QG3030 (6, 30, and 150 μg/10 μL) mixed with an excipient (collagen sponge, CollaCote®) was implanted into a bone defect site to evaluate an osteoanagenic effect (FIG. 11). In this case, the positive control was treated with bone morphogenic protein-2 (BMP2), and the negative control was treated with DMSO (Table 3).
To statistically quantify the osteoanagenic capacity of QG3030, a degree of osteogenesis was realized with a 3-D image, and a region of interest (ROI) was set to analyze parameters such as bone volume/total volume (BV/TV; %), trabecular thickness (Tb.Th; mm), trabecular number (Tb.N; 1/mm), and trabecular separation (Tb.Sp; mm).

B1: BMP2: bone morphogenic protein-2 (BMP2), positive control (protein, UniProt P12643 283-396, looked up)
Bone morphogenetic protein 2: QAKHKQRKRLKSSCKRHPLYVDFSDVGWNDWIVAPPGYHAFYCHGECPFPLADHLNSTNHAIVQTLVNSVNSKIPKACCVPTELSAISMLYLDENEKVVLKNYQDMVVEGCGCR
**Q.** What does the source list for B1?
**A.** bone quality by Tb.N and Tb.Sp (other than Tb.Th) compared to DMSO-treated group: high-quality bone tissue was statistically significantly formed; bone volume/total volume (BV/TV) compared to negative control treated with DMSO: increased to a similar level
